# Test results as given in patent US6472373B1, “Combination therapy for eradicating detectable HCV-RNA in antiviral treatment naive patients having chronic hepatitis C infection” (priority 1997, dated 2002).
# Test system: chronic hepatitis C (hepatic inflammation)
# Experiment: Study 1: liver histology, Knodell HAI (I+II+III) score
# Type: in vivo
# Conditions: patients with paired biopsies
# Description: This was a prospective, multicenter, randomized, double-blind, parallel-group. The study compared treatment with INTRON® A plus ribavirin to treatment with INTRON® A plus placebo for 24 or 48 weeks in antiviral treatment naive patients with compensated chronic hepatitis C who had no prior treatment with any interferon including but not limited to alpha interferon (INTRON® A, Roferon®-A, consensus interferon, or Wellferon®) therapy and who also had no prior treatment with ribavirin. […] Eligible patients had chronic hepatitis C confirmed by positive serum HCV-RNA, liver biopsy, and laboratory tests. Patients were randomized to treatment with either INTRON® A plus ribavirin or INTRON® A plus placebo. […] Treatment group assignments were made in equal ratios by a Central Randomization Center. The randomization procedure was designed to attempt to balance the treatment groups, within and across sites, with respect to presence or absence of cirrhosis in the pretreatment liver biopsy, serum HCV-RNA/qPCR level, and HCV genotype. […] Evaluation of the biopsies was performed by a single pathologist using the Knodell Histology Activity Score. The central pathologist was blinded with respect to patient identification, treatment group, and the time the biopsy was obtained relative to treatment(Pre- or Posttreatment).
substance,measurement,setting,value
"INTRON A + Placebo: INTRON A (interferon alpha-2b, recombinant) 3 million IU SC TIW plus placebo matching ribavirin; interferon monotherapy comparator","Improved Biopsy: Knodell HAI (I+II+III) decrease of 2 or more, 24 weeks following EOT",24 weeks treatment,77 (44%)
same,"Improved Biopsy: Knodell HAI (I+II+III) decrease of 2 or more, 24 weeks following EOT",48 weeks treatment,65 (41%)
